Laboratory results published in patent US6716428B1, “Antigenic modification of polypeptides” (The Ohio State University Research Foundation, priority 1999, dated 2004).

What was measured:
female baboons = test: Effects on menstrual cycle / ovulation in baboons immunized with diazo-gonadotropins; format: in vivo, baboon
Experimental: (§1) Female baboons received their initial immunization on days 3-5 of the menstrual cycle and the second and third injections one week apart. The fourth injection was given 2-3 weeks after the third. A few animals received a fifth injection at 70-80 days after the first injections. All antigens were administered subcutaneously in a suspension of mannide monooleate or peanut oil. Doses of antigens for each injection varied between 3 and 5 mg. Injection sites were inspected daily for 5 days after each immunization for local reactions.
(§2) Daily 24-hour urine specimens and frequent serum samples were collected during at least one menstrual cycle prior to immunizations and following immunizations until the effects of treatment were assessed. Urinary LH, urinary estrogens and plasma progestins were measured. […] Sera were reacted with both the unaltered immunizing hormone and unaltered baboon LH for antibody detection. A purified baboon LH preparation (1.9×NIE-LH-S1) was used as a tracer antigen. Antigen-antibody complexes were precipitated with ovine anti-baboon gamma globulin after a 24-hr. incubation at 4° C. Antibody levels were expressed as pg of labelled hormone bound.
The effects of immunization upon the event of the menstrual cycle were determined by observing changes in sex skin turgescence and levels of pituitary and/or ovarian hormones. Based on these parameters, the delay or retardation of ovulation from the expected time, as judged by the control cycle, was calculated. […] A third animal immunized with HLH was delayed a calculated 86 days. Ovine LH immunizations produced an 88 day delay in ovulation.

baboon LH = test: Antibody production and cross-reactivity with baboon LH in baboons immunized with diazo-gonadotropins (I^131 hormone binding); format: in vivo; details: for cross-reactivity of induced antibodies with baboon LH: antisera at peak levels, immunized baboons
Experimental: as §1, §2
Antisera were fractionated by gel filtration on Sephadex G-200 according to the procedure of Fahey and Terry (at p. 36, Experimental Immunology, F. A. Davis Co., Philadelphia, Pa., 1967, incorporated by reference to the extent necessary to understand the invention) to determine the proportion of IgM and IgG antibodies in the baboon sera. Since the IgG fraction in this procedure contained a portion of IgA and IgD antibodies, only IgM and total titers were determined.

ovary = test: Ovarian augmentation assay (FSH biological potency); format: in vivo; details: partially purified preparation from human pituitaries
Experimental: (§3) All preparations, excepting the OLH, were prepared in the inventor's laboratory.

[1] = tested on: baboon antiserum to Structure (II)-ovine gamma-globulin conjugate; test: Displacement of I^125-labeled synthetic peptide of Structure (II) from baboon antiserum to Structure (II)-ovine gamma-globulin; format: binding
From the text: The specificity of antibody response to a CG fragment-macromolecular carrier is represented by the instant experiment. […] Note that Human LH was ineffective for displacement of tracer antigen at doses up to 2.5 IU (international units).

ovarian ascorbic acid = test: Ovarian ascorbic acid depletion test (LH and HCG biological activity); format: in vivo; details: for activity retained, of the unaltered hormone: diazo-coupled hormone, 35 (HCG) / 26 (HLH) groups/molecule
Experimental: as §3
Following dialysis, happen-hormones were lyophilized and stored at 4° C. Diazo-HCG (35 groups/molecule) and HLH (26 groups/molecule) were bioassayed by the ovarian ascorbic acid depletion method and found to retain 62 and 85 percent respectively of the activity of the unaltered hormones from which they were derived. None of the other hormones was assayed for biological activity.

HCG = test: Antibody titers to HCG in women immunized with Ha-HCG; format: in vivo, human
Experimental: Hormone was altered by coupling with a happen (sulfanilazo). This method couples the happen molecules to the protein via the amino group of the aliphatic or aromatic portion of the hapten.
(§4) Ten mg. of the Ha-HCG antigen were dissolved in 1.0 ml. of saline and emulsified with an equal volume of oil. Prior to injection, scratch tests to antigen and, vehicle were performed. Immunizations were begun in the luteal phase of the treatment cycle to prevent super ovulation from the administered HCG. Four injections at two week intervals were given to the subject. The first two of these were administered in oil subcutaneously (1.0 ml in each upper arm); the final two injections were given in saline only via the intradermal route. Following each injection, blood pressure readings were taken and the subject observed for allergic reactions.
(§5) Blood samples were collected at weekly intervals beginning two weeks after the initial injection to test for the presence of humoral and cellular antibodies. Following completion of the immunization schedule, blood samples were collected in the same manner as in the control cycle to assess effects of immunization on hormonal patterns of the menstrual cycle. […] A third cycle was similarly studied six months after initial immunization. Upon completion of the study, physical and pelvic examinations and laboratory evaluations were repeated.

LH = test: Serum pituitary and gonadal hormone patterns (LH, FSH, estrone, estradiol, progesterone) in women immunized with Ha-HCG; format: in vivo, human
Experimental: Serum determinations of FSH, LH estrone, estradiol and progesterone were performed. These studies indicated an ovulatory pattern.
as §5
Serum samples from the control and post-treatment cycles were assayed for FSH, LH, estrone, estradiol and progesterone.

[2] = Local reactions and lymphocyte transformation test in women immunized with Ha-HCG; format: in vivo, human
Experimental: as §4
The subject was tested for delayed hypertensivity before immunization and at two week intervals until the injection schedule was completed by an in vitro lymphocyte transformation test.

[3] = individual immunized female baboons
[4] = cycle approximately six months from the first immunization

Diazo-human FSH: human FSH coupled with diazotized sulfanilic acid hapten
interruption or delay of ovulation (in cycles) (female baboons; [3]): delayed for only one cycle | antigenicity in the baboon (baboon LH; in vivo): weakly antigenic

HFSH: partially purified preparation from human pituitaries
biological potency (ovary): 86 units per mg. (NIH-FSR-SI)

HCG: highly purified preparation from human pregnancy urine
dose displacing tracer antigen [1]: 20 mIU | biological potency (ovarian ascorbic acid; highly purified preparation from human pregnancy urine): 13,200 IU/mg. (2nd IRP-HCG)

Ha-HCG: purified HCG coupled with sulfanilazo hapten
antibody titers (HCG; [4]): Significant antibody titers; also recorded: no significant antibody titers | antibody titers to HCG first detected (HCG; one woman per Example, 10 mg per injection, two week intervals): after two injections; also recorded: after three injections | LH pattern (midcycle elevation) (LH; [4]): a small midcycle elevation; also recorded: no significant midcycle elevation | progesterone pattern (LH; post-treatment cycle): no ovulatory preogesterone pattern | midcycle LH elevation (LH; post-treatment cycle, one woman per Example II-VII): Very small midcycle elevations; also recorded: no midcycle elevations; also recorded: a very small midcycle elevation; also recorded: no peaks; also recorded: no peaks nor midcycle elevation | lymphocyte transformation tests ([2]; plasma samples): negative | local reaction after initial injection in mannide monooleate ([2]; subcutaneous): some itching and swelling

HLH: partially purified preparation from human pituitaries
dose ineffective for displacement of tracer antigen [1]: > 2.5 IU | biological potency (ovarian ascorbic acid; gonadotropin preparation): 2.5 units per mg. (NIH-LH-SI)

Diazo-HCG: HCG coupled with diazotized sulfanilic acid hapten
interruption or delay of ovulation (in cycles) (female baboons; [3]): no interruption in ovulation; also recorded: two menstrual cycles | activity retained, of the unaltered hormone (ovarian ascorbic acid): 62% | cross-reactivity of induced antibodies with baboon LH (baboon LH): relatively little reaction

Diazo-HLH: HLH coupled with diazotized sulfanilic acid hapten
calculated delay in ovulation (female baboons; [3]): 86 days | interruption or delay of ovulation (in cycles) (female baboons; [3]): two menstrual cycles | duration of the cycle of immunization (no ovulation) (female baboons; one animal): 85 days | activity retained, of the unaltered hormone (ovarian ascorbic acid): 85% | cross-reactivity of induced antibodies with baboon LH (baboon LH): relatively little reaction | antibody levels elevated until, from the first detection of antibodies (baboon LH; one animal): 289 days

Entries after “also recorded” stand apart in the source; their conditions may differ.
